Assay results: PMC12628701, “Paroxysmal Nocturnal Hemoglobinuria in Pregnancy Treated With Pegcetacoplan: Case Report and Pharmacokinetic Analysis” (EJHaem, 2025)

Tests used:
[1] = tested on: patient with hemolytic PNH; assay: Hematological response (hemoglobin, hemolytic markers, transfusion requirements) in pregnant patient with PNH; type: in vivo, human; conditions: for Hapto: normal 0.3–2.0; for ARC: normal 10–100; for Hb: normal 115–160; for Bili: normal ≤ 21; for LDH: normal ≤ 214
Method: The patient was a person diagnosed with hemolytic PNH 5 years before their first pregnancy, with a 95% PNH neutrophil clone by flow cytometry. Upon diagnosis, they were initiated and maintained on eculizumab but remained transfusion‐dependent (∼1 unit RBC/month) despite dose escalation to 1200 mg intravenous every 11 days.
An unplanned pregnancy was identified during treatment with pegcetacoplan. Given the lack of safety data, they were reloaded with eculizumab at 4 weeks’ gestation, with pegcetacoplan discontinued at the time of the first eculizumab infusion. Prophylactic‐dose dalteparin was prescribed. Despite increased eculizumab dosing (1200 mg every 11 days), they redeveloped transfusion‐dependent anemia with signs of extravascular hemolysis, requiring 2–3 units RBC/month. Due to increasing transfusion requirements throughout the second trimester, following multidisciplinary consultation and shared decision‐making, twice‐weekly pegcetacoplan was reinitiated at 28 weeks’ gestation with a 4‐week overlap with eculizumab as per standard protocol. Informed consent was obtained for off‐label use in pregnancy, pharmacokinetic sampling, and case reporting. Institutional ethics board review exemption was granted for this single‐patient case report.
(§1) Maternal and fetal outcomes were assessed throughout the third trimester and postpartum. Hematological response was evaluated using serial measurements of hemoglobin, hemolytic markers, and transfusion requirements. Complement levels/activity were measured using immunoturbidimetric assays for C3/C4 (Roche Diagnostics, Germany), and 50% hemolytic complement (CH50) by turbidimetric assay (Optilite, Binding Site, UK). Maternal clinical monitoring included evaluation for breakthrough hemolysis, thrombotic events, and other adverse events. Neonatal outcomes included gestational age at delivery, mode of delivery, birth weight, Apgar scores, and any complications identified during birth, hospitalization, or early follow‐up.

[2] = tested on: complement C3, C4, CH50; assay: Complement levels/activity (C3/C4 immunoturbidimetric, CH50 turbidimetric) in patient; type: in vivo, human; conditions: normal 42–95
Method: as §1

[3] = 4 + 2 w, date of eculizumab initiation

B1: eculizumab (antibody, chains of the INN, looked up)
heavy: QVQLVQSGAEVKKPGASVKVSCKASGYIFSNYWIQWVRQAPGQGLEWMGEILPGSGSTEYTENFKDRVTMTRDTSTSTVYMELSSLRSEDTAVYYCARYFFGSSPNWYFDVWGQGTLVTVSSASTKGPSVFPLAPCSRSTSESTAALGCLVKDYFPEPVTVSWNSGALTSGVHTFPAVLQSSGLYSLSSVVTVPSSNFGTQTYTCNVDHKPSNTKVDKTVERKCCVECPPCPAPPVAGPSVFLFPPKPKDTLMISRTPEVTCVVVDVSQEDPEVQFNWYVDGVEVHNAKTKPREEQFNSTYRVVSVLTVLHQDWLNGKEYKCKVSNKGLPSSIEKTISKAKGQPREPQVYTLPPSQEEMTKNQVSLTCLVKGFYPSDIAVEWESNGQPENNYKTTPPVLDSDGSFFLYSRLTVDKSRWQEGNVFSCSVMHEALHNHYTQKSLSLSLG
light: DIQMTQSPSSLSASVGDRVTITCGASENIYGALNWYQQKPGKAPKLLIYGATNLADGVPSRFSGSGSGTDFTLTISSLQPEDFATYYCQNVLNTPLTFGQGTKVEIKRTVAAPSVFIFPPSDEQLKSGTASVVCLLNNFYPREAKVQWKVDNALQSGNSQESVTEQDSKDSTYSLSSTLTLSKADYEKHKVYACEVTHQGLSSPVTKSFNRGEC
B1 gave a Hapto [1, 3] of 1.2 g/L, an ARC [1, 3] of 9.6e+10 L⁻¹ and a Hb [1, 3] of 107 g/L. For the same molecule, the Bili [1, 3] was 11 µmol/L, the LDH [1, 3] was 217 U/L and the Hapto ([1]; 7 + 3 w, on eculizumab) was 0.74 g/L. It also gave an ARC ([1]; 7 + 3 w, on eculizumab) of 2.15e+11 L⁻¹, a Hb ([1]; 7 + 3 w, on eculizumab) of 102 g/L and a Bili ([1]; 7 + 3 w, on eculizumab) of 13 µmol/L. It also gave an LDH ([1]; 7 + 3 w, on eculizumab) of 220 U/L, a Hapto ([1]; 10 + 5 w, on eculizumab) of 0.1 g/L and an ARC ([1]; 10 + 5 w, on eculizumab) of 1.26e+11 L⁻¹. It also gave a Hb ([1]; 10 + 5 w, on eculizumab) of 99 g/L, a Bili ([1]; 10 + 5 w, on eculizumab) of 11 µmol/L and an LDH ([1]; 10 + 5 w, on eculizumab) of 256 U/L. It also gave a Hapto ([1]; 14 + 5w, on eculizumab) of 0.1 g/L, an ARC ([1]; 14 + 5w, on eculizumab) of 1.72e+11 L⁻¹ and a Hb ([1]; 14 + 5w, on eculizumab) of 93 g/L. For the same molecule, the Bili ([1]; 14 + 5w, on eculizumab) was 6 µmol/L, the LDH ([1]; 14 + 5w, on eculizumab) was 213 U/L and the Hapto ([1]; 21 + 2 w, on eculizumab) was 0.1 g/L. For the same molecule, the ARC ([1]; 21 + 2 w, on eculizumab) was 1.97e+11 L⁻¹, the Hb ([1]; 21 + 2 w, on eculizumab) was 85 g/L and the Bili ([1]; 21 + 2 w, on eculizumab) was 8 µmol/L. For the same molecule, the LDH ([1]; 21 + 2 w, on eculizumab) was 246 U/L, the ARC ([1]; 26 + 2 w, on eculizumab) was 1.72e+11 L⁻¹ and the Hb ([1]; 26 + 2 w, on eculizumab) was 82 g/L. It also gave a Bili ([1]; 26 + 2 w, on eculizumab) of 10 µmol/L, an LDH ([1]; 26 + 2 w, on eculizumab) of 243 U/L and a Transfusion requirement ([1]; before pregnancy, eculizumab escalated to 1200 mg intravenous every 11 days) of about 1 unit RBC/month. The Transfusion requirement ([1]; during pregnancy, eculizumab 1200 mg every 11 days) was 2–3 units RBC/month, the CH50 [2, 3] was 18 U/mL and the CH50 ([2]; 7 + 3 w, on eculizumab) was 23 U/mL. It also gave a CH50 ([2]; 10 + 5 w, on eculizumab) of 19 U/mL, a CH50 ([2]; 14 + 5w, on eculizumab) of 15 U/mL and a CH50 ([2]; 21 + 2 w, on eculizumab) of 15 U/mL.
